Test results reported in US20250179439A1, “PRODUCTION METHOD FOR ORGANOID” (KEIO UNIVERSITY, priority 2022, published 2025).

System: CRC organoids xenografted into nude mice
Assay: CRC organoid xenograft in nude mice, tumor volume
Format: in vivo, mouse
Conditions: cetuximab 40 mg/kg intraperitoneally every 3 days, 7 doses; nab-paclitaxel 20 mg/kg intravenously twice a week, six doses
Experimental: All animal experiments were carried out with the approval of the Laboratory Animal Center, Keio University School of Medicine. The verification was carried out by xenografting CRC organoids into nude mice to determine whether the results of HTS using in vitro cultured organoids were the same as those in vivo.
The CRC organoids were cultured in the same manner as in Example 1. The CRC organoids obtained by suspension culture were centrifuged, and the pellet was suspended in cold Matrigel. 0.2 mL of the CRC organoid suspension (1×10^6 cells/injection) was transplanted with subcutaneous injection into four sites on the left and right sides of nude mice.
Tumor volumes were measured over time with an electronic caliber. After the tumor volume reached 100 to 150 mm^3, cetuximab (40 mg/kg, available from Merck & Co., Inc.) was intraperitoneally injected every 3 days for 7 doses. In addition, nab-paclitaxel (20 mg/kg, available from Taiho Pharmaceutical Co., Ltd.) was intravenously injected twice a week for six doses.

## cetuximab
  drug effect in vivo (tumor volume) compared with HTS in vitro: in good agreement with the results of HTS obtained in vitro
